Measured values reported in patent EP4282435A1, “FORMULATIONS OF ACTIVE PHARMACEUTICAL INGREDIENTS AND EXCIPIENTS IN ICELLS VIA HYDROPHOBIC ION PAIRING” (Danmarks Tekniske Universitet, priority 2022, dated 2023).

Test: Solubility of ICG HIP complexes in ICell (visual)
Conditions: ICG or its HIP complex with the named co-ion in SuBen:GTO:EtOH (60:25:15) ICell, about 2.5 mg ICG per 1 g ICell
Experimental: For each co-ion, the chloroform phase was isolated and transferred to new glass vials. Chloroform was dried under a gentle flow of nitrogen.
1 g of ICell was added to each vial containing the previously isolated ICG HIP complexes. In addition, 1 g of ICell was added to a vial containing 2.5 mg of native ICG.

## CC[N+](CC)(CC)CC.[Br-] [Tetraethyl ammonium bromide]
  solubility in ICell: easily solubilized
